Columns and labels:
[1] = Chain conformation / helicity by circular dichroism (CD) spectroscopy; assay type: physicochemical; settings: for chain conformation / α-helical (%): CD in water, 0.5 mg/mL, 20° C.
Source text: A) Scheme for complete conversion of helical, water-insoluble M60 (SEQ ID NO: 1) to disordered, water soluble 31a (M^EG360 (SEQ ID NO: 1)), then to helical, water soluble 31 (EG3-C^H60 (SEQ ID NO: 2)) via M alkylation followed by demethylation. B) CD spectra of M60 (SEQ ID NO: 1), 31a and 31 in either THF (M60 (SEQ ID NO: 1)) or DI water (31a & 31). For M60 (SEQ ID NO: 1), no data are presented below 204 nm due to solvent absorption that prohibits data collection. 31 found to be 85% α-helical. All CD spectra recorded at 0.5 mg/ml, 20° C. Figure discloses “C^H60” as SEQ ID NO: 2.
(§1) FIGS. 7A and 7B show CD Spectra and heating curves of exemplary OEG-Hcy derivatives.
Heating or cooling rate: 1° C./min, transmittance recorded at 500 nm. B) CD spectra for 2e (0.5 mg/mL) in H2O for a sample incrementally heated from 20° C. to 45° C. and returned back to 20° C. (label: 20° C.*).
All data were recorded in H2O at 0.5 mg/mL, 20° C. For 5b no data were recorded below 198 nm due to sulfoxide absorption.

[2] = Cloud point temperature (Tcp) by transmittance while heating; assay type: physicochemical; settings: for Tcp (° C.): polymer 3.0 mg/mL in H2O, heated 1° C./min, temperature of 50% transmittance at 500 nm, —a = no Tcp detected, fully soluble 20 to 80° C., NA^b = insoluble in H2O down to 5° C.
Experimental: as §1
The incorporation of precise side-chain structural modifications, enabled systematic study of the effects of different functionalities on the properties of the materials. […] Cloud point temperatures (Tcp) were determined at 50% transmittance by monitoring solution transmittance as a function of temperature, and were used to approximate the equilibrium LCST values. Since chain length variation and polymer concentration are well known to affect Tcp values, all samples were identical in length, being prepared from the same stock of M60 (SEQ ID NO: 1).

**Q.** Which chain conformation [1] does the source give for “Poly(S-(3-(2-methoxyethoxy)-2-hydroxypropyl)-L-homocysteine) [Sample 2b]” here?
**A.** Its chain conformation is “α-helical conformation”.

**Q.** And the “α-helical (%)” value [1]?
**A.** The value was 84%.

**Q.** What about the “Tcp / LCST in water, present or not” value [2] of the same substance?
**A.** Its value is “shows a Tcp in water”.

**Q.** And the “Tcp (° C.)” value [2]?
**A.** The value was 33 °C.

**Q.** With “Poly(S-(3-(2-hydroxyethoxy)-2-hydroxypropyl)-L-homocysteine) [Sample 2a]” as the substance, how does the “Tcp / LCST in water, present or not” value [2] read?
**A.** Its value is “no LCST”.

**Q.** Which “Tcp (° C.)” value [2] does the source give for “Poly[(S-(2-hydroxy-4,7,10-trioxaundecyl)-L-homocysteine)0.5-stat-(S-(2-hydroxy-4,7,10-trioxadodecyl)-L-homocystein)0.5] [Sample 4b]” here?
**A.** The value was 40 °C.

**Q.** What does the source list for “Poly(S-(2-hydroxy-4,7,10,13-tetraoxatetradecyl)-L-methionine sulfonium chloride) [Sample 31a]”?
**A.** chain conformation [1]: disordered; water solubility (in words) (Solubility in water): water soluble

**Q.** With “Poly(S-(3-(2-methoxyethoxy)-2-hydroxypropyl)-DL-homocysteine) [rac-2b]” as the substance, how does the “Tcp / LCST in water, present or not” value [2] read?
**A.** The value was “do not have LCSTs”.

**Q.** What does the source list for “Poly(S-(2-hydroxy-4,7,10-trioxadodecyl)-L-homocysteine) [Sample 2e]”?
**A.** chain conformation above Tcp ([1]; CD in H2O, heated above Tcp (2e: 0.5 mg/mL, 20° C. to 45° C.)): remained helical; Tcp (° C.) [2]: 28 °C

**Q.** Which “Tcp (° C.)” value [2] does the source give for “Poly(S-(2-hydroxy-4,7,10-trioxaundecyl)-L-homocysteine) [Sample 2d]” here?
**A.** Its value is 53 °C.

**Q.** Which chain conformation [1] does the source give for “Poly(S-(2-hydroxy-4,7,10,13-tetraoxatetradecyl)-L-homocysteine) [Sample 2f]” here?
**A.** The chain conformation was “helical”.

**Q.** And the “α-helical (%)” value [1]?
**A.** Its value is 85%.

**Q.** What about the “increase in Tcp over the other samples (3a, 3b)” value ([2]; hydroxyl linker group versus acetate and carbonate) of the same substance?
**A.** Its value is “ca. 36 °C”.

**Q.** What about the “Tcp (° C.)” value [2] of the same substance?
**A.** The value was 76 °C.

**Q.** And the “water solubility (in words)” value (Solubility in water)?
**A.** The value was “water soluble”.
